In PMC5747257 (Bioorganic & medicinal chemistry letters, 2017):

Tests used:
[1] = test system: HDAC6 (substrate acetyl-α-tubulin, AcTub); experiment: In cellulo selectivity, western blot of acetyl-α-tubulin in U937 cells; format: cell-based; conditions: SAHA 5 µM, 1e 10–40 µM, compared to DMSO control
[2] = test system: Class I HDAC (HDAC1, 2, and 3) (substrate acetyl-histone 3, AcH3); experiment: In cellulo selectivity, western blot of acetyl-histone H3 in U937 cells; format: cell-based; conditions: SAHA 5 µM, 1e 10–40 µM, compared to DMSO control

O=C(CCCCCCC(=O)Nc1ccccc1)NO [SAHA, Suberoylanilide hydroxamic acid]
levels of acetyl-α-tubulin (AcTub) [1]: increased the levels of both acetyl-α-tubulin and acetyl-histone H3 to a similar extent
levels of acetyl-histone H3 (AcH3) [2]: increased the levels of both acetyl-α-tubulin and acetyl-histone H3 to a similar extent
